# Tested on: HFF cells
# Assay: Drug toxicity assay in human foreskin fibroblast (HFF) cells, resazurin
# Assay type: cell-based
# Conditions: read-out: HFF EC50; human foreskin fibroblasts; highest concentration tested 100 µg/mL; mean ± SEM, n>=3
compound,measurement,value
O=[As]c1ccccc1 (stereo not shown),EC50,1310 nM

# — paper PMC7915666, “Antitrypanosomal and Antileishmanial Activity of Chalcones and Flavanones from Polygonum salicifolium” (Pathogens, 2021)
